Experimental findings from ChEMBL document CHEMBL5113496, “A systematic exploration of boceprevir-based main protease inhibitors as SARS-CoV-2 antivirals” (Eur J Med Chem, 2022) are described below.

Each structure is given as a SMILES string.

The first experiment has as its target T1, Replicase polyprotein 1ab (Severe acute respiratory syndrome coronavirus 2, UniProt P0DTD1). As to the kind of experiment: Inhibition of His/SUMO tagged SARS-CoV2 main protease expressed in Escherichia coli BL21 (DE3) cells using DABCYL-Lys-Thr-Ser-Ala-Val-Leu-Gln-Ser-Gly-Phe-Arg-Lys-Met-Glu-EDANS as fluorogenic substrate preincubated for 30 mins followed by substrate addition and measured after 30 mins by fluorescence plate reader analysis.
Usually IC50 stands for the point on the concentration scale where inhibition reaches its midpoint. Read a high IC50 as lower potency. In turn, `CC(C)(C)NC(=O)N[C@H](C(=O)N1CC2(CC2)C[C@H]1C(=O)N[C@H](C=O)C[C@@H]1CCNC1=O)C(C)(C)C` yielded an IC50 of 0.023 µM.

Molecule `CC(C)(C)CC(=O)N[C@H](C(=O)N1C[C@H]2[C@@H]([C@H]1C(=O)N[C@@H](C[C@@H]1CCNC1=O)C(=O)C(N)=O)C2(C)C)C(C)(C)C` had a half-inhibitory concentration (IC50) of 0.15 µM.

Turning to `CC(C)(C)C[C@H](NC(=O)[C@@H](NC(=O)NC(C)(C)C)C(C)(C)C)C(=O)N[C@H](C=O)C[C@@H]1CCNC1=O`, the half-maximal inhibitory concentration (IC50) worked out at 0.017 µM.

The target of the next experiment is T1, Replicase polyprotein 1ab. Nature of the experiment: Inhibition of eGFP fused SARS-CoV2 main protease transfected in HEK293T/17 cells incubated for 72 hrs by fluorescence based flow cytometry analysis. It counts as cell-based.
By EC50 is commonly meant the midpoint of the concentration-response curve. Low values mean a more potent agent, high ones a less potent agent. `C[C@@H](OC(C)(C)C)[C@H](NC(=O)OCc1ccccc1)C(=O)N1C[C@H]2[C@@H]([C@H]1C(=O)N[C@H](C=O)C[C@@H]1CCNC1=O)C2(C)C` displayed an EC50 of 0.14 µM.

In the case of `CC(C)(C)CC(=O)N[C@H](C(=O)N1C[C@H]2[C@@H]([C@H]1C(=O)N[C@@H](C[C@@H]1CCNC1=O)C(=O)C(N)=O)C2(C)C)C(C)(C)C`, the EC50 was found to be 7.7 µM.

Take `CC(C)(C)[C@H](NC(=O)OCc1ccccc1)C(=O)N1C[C@H]2[C@@H]([C@H]1C(=O)N[C@H](C=O)C[C@@H]1CCNC1=O)C2(C)C`: the EC50 was 0.31 µM.

The molecule `C[C@@H](OC(C)(C)C)[C@H](NC(=O)NC(C)(C)C)C(=O)N[C@@H](CC1CCCCC1)C(=O)N[C@H](C=O)C[C@@H]1CCNC1=O` had an EC50 of 0.74 µM.
